Test results: patent US20260022143A1, “Cyclic Peptide Inhibitors of IL-23” (JANSSEN PHARMACEUTICA NV, priority 2022, published 2026)

Target: T1, IL-23R (Homo sapiens, UniProt Q5VWK5)
T1 construct: host or cells: HEK293
T1 sequence (Q5VWK5 24-629): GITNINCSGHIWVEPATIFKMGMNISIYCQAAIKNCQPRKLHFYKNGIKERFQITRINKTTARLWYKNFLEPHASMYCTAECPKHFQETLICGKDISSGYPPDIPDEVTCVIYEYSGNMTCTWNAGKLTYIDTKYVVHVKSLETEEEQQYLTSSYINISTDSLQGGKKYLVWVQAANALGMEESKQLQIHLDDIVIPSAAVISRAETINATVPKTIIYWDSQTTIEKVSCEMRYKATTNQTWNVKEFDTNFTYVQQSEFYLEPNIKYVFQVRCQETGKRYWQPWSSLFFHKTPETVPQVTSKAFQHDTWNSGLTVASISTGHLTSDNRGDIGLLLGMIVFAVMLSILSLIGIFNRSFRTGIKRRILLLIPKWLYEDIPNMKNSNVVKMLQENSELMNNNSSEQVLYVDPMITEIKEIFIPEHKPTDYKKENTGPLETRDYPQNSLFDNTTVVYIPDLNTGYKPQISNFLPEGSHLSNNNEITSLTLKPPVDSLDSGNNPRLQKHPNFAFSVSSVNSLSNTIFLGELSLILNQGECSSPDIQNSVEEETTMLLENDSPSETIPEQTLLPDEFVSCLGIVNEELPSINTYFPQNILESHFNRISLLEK
Experiment: IL23R Reporter Assay
Type: cell-based
Settings: HEK293 cells containing IL-23R, IL-12RP1 and STAT-inducible firefly luciferase reporter; 10 ng/mL IL-23 (EC90); 5 h at 37° C.; read-out: IL23R Reporter Assay

Compound	IC50
COCCN1CC[N+]2(CC1)CCN(CCOc1ccc(C[C@H](NC(=O)[C@H]3NC(=O)[C@H](CCCCN(C)C(C)=O)NC(=O)[C@H](Cc4c[nH]c5c(C)cccc45)NC(=O)[C@H]([C@@H](C)O)NC(=O)[C@H](CC(=O)N(C)C)NC(=O)[C@@H](NC(=O)CCOCCOCC[N+](C)(C)C)C(C)(C)SSC3(C)C)C(=O)N[C@@H](Cc3ccc4ccccc4c3)C(=O)NC3(C(=O)N[C@@H](CCCCN(C)C(C)=O)C(=O)N[C@@H](CC(N)=O)C(=O)N[C@@H](Cc4cccnc4)C(=O)N(C)CC(=O)N(C)C)CCOCC3)cc1)CC2 [compound 262, cPEG3aCO-Pen(3)-N(N(Me)2)-T-7MeW-K(NMeAc)-Pen(3)-MTASF-2Nal-THP-K(NMeAc)-N-3Pya-Sar-CON(Me)2]	3.6 nM
CC(=O)N(C)CCCC[C@@H]1NC(=O)[C@H](Cc2c[nH]c3c(C)cccc23)NC(=O)[C@H]([C@@H](C)O)NC(=O)[C@H](CC(=O)N(C)C)NC(=O)[C@@H](NC(=O)CCOCCOCC[N+](C)(C)C)C(C)(C)SSC(C)(C)[C@@H](C(=O)N[C@@H](Cc2ccc(OCCN(C)CCC[N+](C)(C)CCCC[N+](C)(C)C)cc2)C(=O)N[C@@H](Cc2ccc3ccccc3c2)C(=O)NC2(C(=O)N[C@@H](CCCCN(C)C(C)=O)C(=O)N[C@@H](CC(N)=O)C(=O)N[C@@H](Cc3cccnc3)C(=O)N(C)CC(=O)N(C)C)CCOCC2)NC1=O [compound 277, cPEG3aCO-Pen(3)-N(N(Me)2)-T-7MeW-K(NMeAc)-Pen(3)-AEF(SPD)-2Nal-THP-K(NMeAc)-N-3Pya-Sar-CON(Me)2]	2.9 nM
CC(=O)N[C@@H]1C(=O)N[C@@H](CC(N)=O)C(=O)N[C@@H]([C@@H](C)O)C(=O)N[C@@H](Cc2c[nH]c3c(C)cccc23)C(=O)N[C@@H](CCCCN(C)C(C)=O)C(=O)N[C@H](C(=O)N[C@@H](Cc2ccc(OCCN)cc2)C(=O)N[C@@H](Cc2ccc3ccccc3c2)C(=O)NC2(C(=O)N[C@@H](CCCCN(C)C(C)=O)C(=O)N[C@@H](CC(N)=O)C(=O)N[C@@H](Cc3cccnc3)C(=O)N(C)CC(N)=O)CCOCC2)C(C)(C)SSC1(C)C [compound 280]	2.7 nM
CC(=O)N(C)CCCC[C@@H]1NC(=O)[C@H](Cc2c[nH]c3c(C)cccc23)NC(=O)[C@H]([C@@H](C)O)NC(=O)[C@H](CC(=O)N(C)C)NC(=O)[C@@H](NC(=O)CCOCCOCC[N+](C)(C)C)C(C)(C)SSC(C)(C)[C@@H](C(=O)N[C@@H](Cc2ccc(OCCCCCCCC[N+](C)(C)C)cc2)C(=O)N[C@@H](Cc2ccc3ccccc3c2)C(=O)NC2(C(=O)N[C@@H](CCCCN(C)C(C)=O)C(=O)N[C@@H](CC(N)=O)C(=O)N[C@@H](Cc3cccnc3)C(=O)N(C)CC(=O)N(C)C)CCOCC2)NC1=O [compound 295, cPEG3aCO-Pen(3)-N(N(Me)2)-T-7MeW-K(NMeAc)-Pen(3)-TMA8F-2Nal-THP-K(NMeAc)-N-3Pya-Sar-CON(Me)2]	2.4 nM
CC(=O)N(C)CCCC[C@@H]1NC(=O)[C@H](Cc2c[nH]c3c(C)cccc23)NC(=O)[C@H]([C@@H](C)O)NC(=O)[C@H](CC(=O)N(C)C)NC(=O)[C@@H](NC(=O)CCOCCOCC[N+](C)(C)C)C(C)(C)SSC(C)(C)[C@@H](C(=O)N[C@@H](Cc2ccc(-n3cc(CCCC[N+](C)(C)C)nn3)cc2)C(=O)N[C@@H](Cc2ccc3ccccc3c2)C(=O)NC2(C(=O)N[C@@H](CCCCN(C)C(C)=O)C(=O)N[C@@H](CC(N)=O)C(=O)N[C@@H](Cc3cccnc3)C(=O)N(C)CC(=O)N(C)C)CCOCC2)NC1=O [compound 302, cPEG3aCO-Pen(3)-N(N(Me)2)-T-7MeW-K(NMeAc)-Pen(3)-F(4TzlTMA4)-]	1.3 nM
COCc1cn(-c2ccc(C[C@H](NC(=O)[C@H]3NC(=O)[C@H](CCCCN(C)C(C)=O)NC(=O)[C@H](Cc4c[nH]c5c(C)cccc45)NC(=O)[C@H]([C@@H](C)O)NC(=O)[C@H](CC(=O)N(C)C)NC(=O)[C@@H](NC(=O)CCOCCOCC[N+](C)(C)C)C(C)(C)SSC3(C)C)C(=O)N[C@@H](Cc3ccc4ccccc4c3)C(=O)NC3(C(=O)N[C@@H](CCCCN(C)C(C)=O)C(=O)N[C@@H](CC(N)=O)C(=O)N[C@@H](Cc4cccnc4)C(=O)N(C)CC(=O)N(C)C)CCOCC3)cc2)nn1 [compound 303, cPEG3aCO-Pen(3)-N(N(Me)2)-T-7MeW-K(NMeAc)-Pen(3)-F(4TzlMME)-2Nal-THP-K(NMeAc)-N-3Pya-Sar-CON(Me)2]	3.6 nM

Further compounds by falling IC50, results first:

IC50	Compound
3.6 nM	COCC[N+](C)(C)CCc1cn(CCOc2ccc(C[C@H](NC(=O)[C@H]3NC(=O)[C@H](CCCCNC(C)=O)NC(=O)[C@H](Cc4c[nH]c5c(C)cccc45)NC(=O)[C@H]([C@@H](C)O)NC(=O)[C@H](CC(N)=O)NC(=O)[C@@H](NC(C)=O)C(C)(C)SSC3(C)C)C(=O)N[C@@H](Cc3ccc4ccccc4c3)C(=O)NC3(C(=O)N[C@@H](CCCCNC(C)=O)C(=O)N[C@@H](CC(N)=O)C(=O)N[C@@H](Cc4cccnc4)C(=O)N(C)CC(N)=O)CCOCC3)cc2)nn1 [compound 249]
3.6 nM	COCCOCCOCC[N+](C)(C)CCc1cn(CCOc2ccc(C[C@H](NC(=O)[C@H]3NC(=O)[C@H](CCCCN(C)C(C)=O)NC(=O)[C@H](Cc4c[nH]c5c(C)cccc45)NC(=O)[C@H]([C@@H](C)O)NC(=O)[C@H](CC(=O)N(C)C)NC(=O)[C@@H](NC(=O)CCOCCOCC[N+](C)(C)C)C(C)(C)SSC3(C)C)C(=O)N[C@@H](Cc3ccc4ccccc4c3)C(=O)NC3(C(=O)N[C@@H](CCCCN(C)C(C)=O)C(=O)N[C@@H](CC(N)=O)C(=O)N[C@@H](Cc4cccnc4)C(=O)N(C)CC(=O)N(C)C)CCOCC3)cc2)nn1 [compound 283, cPEG3aCO-Pen(3)-N(N(Me)2)-T-7MeW-K(NMeAc)-Pen(3)-Y(OTzlChmPEG3)-2Nal-THP-K(NMeAc)-N-3Pya-Sar-CON(Me)2]
2.4 nM	CC(=O)N(C)CCCC[C@@H]1NC(=O)[C@H](Cc2c[nH]c3c(C)cccc23)NC(=O)[C@H]([C@@H](C)O)NC(=O)[C@H](CC(=O)N(C)C)NC(=O)[C@@H](NC(=O)CCOCCOCC[N+](C)(C)C)C(C)(C)SSC(C)(C)[C@@H](C(=O)N[C@@H](Cc2ccc(OC/C=N/OCC[N+](C)(C)C)cc2)C(=O)N[C@@H](Cc2ccc3ccccc3c2)C(=O)NC2(C(=O)N[C@@H](CCCCN(C)C(C)=O)C(=O)N[C@@H](CC(N)=O)C(=O)N[C@@H](Cc3cccnc3)C(=O)N(C)CC(=O)N(C)C)CCOCC2)NC1=O [compound 305, cPEG3aCO-Pen(3)-N(N(Me)2)-T-7MeW-K(NMeAc)-Pen(3)-Y(OEOXlMECh)-2Nal-THP-K(NMeAc)-N-3Pya-Sar-CON(Me)2]
2.3 nM	CC(=O)NCCCC[C@@H]1NC(=O)[C@H](Cc2c[nH]c3c(C)cccc23)NC(=O)[C@H]([C@@H](C)O)NC(=O)[C@H](CC(=O)N(C)C)NC(=O)[C@@H](NC(C)=O)C(C)(C)SSC(C)(C)[C@@H](C(=O)N[C@@H](Cc2ccc(OCCN)cc2)C(=O)N[C@@H](Cc2ccc3ccccc3c2)C(=O)NC2(C(=O)N[C@@H](CCCCNC(C)=O)C(=O)N[C@@H](CC(N)=O)C(=O)N[C@@H](Cc3cccnc3)C(=O)N(C)CC(N)=O)CCOCC2)NC1=O [compound 279, MeCO-Pen(3)-N(N(Me)2)-T-7MeW-K(Ac)-Pen(3)-AEF-2Nal-THP-K(Ac)-N-3Pya-Sar-CONH2]
2.2 nM	CC(=O)N(C)CCCC[C@@H]1NC(=O)[C@H](Cc2c[nH]c3c(C)cccc23)NC(=O)[C@H]([C@@H](C)O)NC(=O)[C@H](CC(=O)N(C)C)NC(=O)[C@@H](NC(=O)CCOCCOCC[N+](C)(C)C)C(C)(C)SSC(C)(C)[C@@H](C(=O)N[C@@H](Cc2ccc(OCC[N+](C)(C)CCOCC[N+](C)(C)C)cc2)C(=O)N[C@@H](Cc2ccc3ccccc3c2)C(=O)NC2(C(=O)N[C@@H](CCCCN(C)C(C)=O)C(=O)N[C@@H](CC(N)=O)C(=O)N[C@@H](Cc3cccnc3)C(=O)N(C)CC(=O)N(C)C)CCOCC2)NC1=O [compound 264, cPEG3aCO-Pen(3)-N(N(Me)2)-T-7MeW-K(NMeAc)-Pen(3)-AEF(aPEG2a)-2Nal-THP-K(NMeAc)-N-3Pya-Sar-CON(Me)2]
2.2 nM	CC(=O)N(C)CCCC[C@@H]1NC(=O)[C@H](Cc2c[nH]c3c(C)cccc23)NC(=O)[C@H]([C@@H](C)O)NC(=O)[C@H](CC(=O)N(C)C)NC(=O)[C@@H](NC(=O)CCOCCOCC[N+](C)(C)C)C(C)(C)SSC(C)(C)[C@@H](C(=O)N[C@@H](Cc2ccc(OCCCC[N+](C)(C)CC[N+]3(C)CCOCC3)cc2)C(=O)N[C@@H](Cc2ccc3ccccc3c2)C(=O)NC2(C(=O)N[C@@H](CCCCN(C)C(C)=O)C(=O)N[C@@H](CC(N)=O)C(=O)N[C@@H](Cc3cccnc3)C(=O)N(C)CC(=O)N(C)C)CCOCC2)NC1=O [compound 271, cPEG3aCO-Pen(3)-N(N(Me)2)-T-7MeW-K(NMeAc)-Pen(3)-morfTMA4F-2Nal-THP-K(NMeAc)-N-3Pya-Sar-CON(Me)2]
1.7 nM	CC(=O)N(C)CCCC[C@@H]1NC(=O)[C@H](Cc2c[nH]c3c(C)cccc23)NC(=O)[C@H]([C@@H](C)O)NC(=O)[C@H](CC(=O)N(C)C)NC(=O)[C@@H](NC(=O)CCOCCOCC[N+](C)(C)C)C(C)(C)SSC(C)(C)[C@@H](C(=O)N[C@@H](Cc2ccc(OCCOCCOCC[N+]3(C)CCC(F)(F)CC3)cc2)C(=O)N[C@@H](Cc2ccc3ccccc3c2)C(=O)NC2(C(=O)N[C@@H](CCCCN(C)C(C)=O)C(=O)N[C@@H](CC(N)=O)C(=O)N[C@@H](Cc3cccnc3)C(=O)N(C)CC(=O)N(C)C)CCOCC2)NC1=O [compound 298, cPEG3aCO-Pen(3)-N(N(Me)2)-T-7MeW-K(NMeAc)-Pen(3)-dFPPEG3F-2Nal-THP-K(NMeAc)-N-3Pya-Sar-CON(Me)2]
